Assay results reported in US9453031B2, “Chemical entities” (Fundación Centro Nacional de Investigaciones Oncológicas …, priority 2013, dated 2016).

Sequences of proteins named here, by UniProt entry; tags and fusion partners are left off.
UniProt P78527, whole entry: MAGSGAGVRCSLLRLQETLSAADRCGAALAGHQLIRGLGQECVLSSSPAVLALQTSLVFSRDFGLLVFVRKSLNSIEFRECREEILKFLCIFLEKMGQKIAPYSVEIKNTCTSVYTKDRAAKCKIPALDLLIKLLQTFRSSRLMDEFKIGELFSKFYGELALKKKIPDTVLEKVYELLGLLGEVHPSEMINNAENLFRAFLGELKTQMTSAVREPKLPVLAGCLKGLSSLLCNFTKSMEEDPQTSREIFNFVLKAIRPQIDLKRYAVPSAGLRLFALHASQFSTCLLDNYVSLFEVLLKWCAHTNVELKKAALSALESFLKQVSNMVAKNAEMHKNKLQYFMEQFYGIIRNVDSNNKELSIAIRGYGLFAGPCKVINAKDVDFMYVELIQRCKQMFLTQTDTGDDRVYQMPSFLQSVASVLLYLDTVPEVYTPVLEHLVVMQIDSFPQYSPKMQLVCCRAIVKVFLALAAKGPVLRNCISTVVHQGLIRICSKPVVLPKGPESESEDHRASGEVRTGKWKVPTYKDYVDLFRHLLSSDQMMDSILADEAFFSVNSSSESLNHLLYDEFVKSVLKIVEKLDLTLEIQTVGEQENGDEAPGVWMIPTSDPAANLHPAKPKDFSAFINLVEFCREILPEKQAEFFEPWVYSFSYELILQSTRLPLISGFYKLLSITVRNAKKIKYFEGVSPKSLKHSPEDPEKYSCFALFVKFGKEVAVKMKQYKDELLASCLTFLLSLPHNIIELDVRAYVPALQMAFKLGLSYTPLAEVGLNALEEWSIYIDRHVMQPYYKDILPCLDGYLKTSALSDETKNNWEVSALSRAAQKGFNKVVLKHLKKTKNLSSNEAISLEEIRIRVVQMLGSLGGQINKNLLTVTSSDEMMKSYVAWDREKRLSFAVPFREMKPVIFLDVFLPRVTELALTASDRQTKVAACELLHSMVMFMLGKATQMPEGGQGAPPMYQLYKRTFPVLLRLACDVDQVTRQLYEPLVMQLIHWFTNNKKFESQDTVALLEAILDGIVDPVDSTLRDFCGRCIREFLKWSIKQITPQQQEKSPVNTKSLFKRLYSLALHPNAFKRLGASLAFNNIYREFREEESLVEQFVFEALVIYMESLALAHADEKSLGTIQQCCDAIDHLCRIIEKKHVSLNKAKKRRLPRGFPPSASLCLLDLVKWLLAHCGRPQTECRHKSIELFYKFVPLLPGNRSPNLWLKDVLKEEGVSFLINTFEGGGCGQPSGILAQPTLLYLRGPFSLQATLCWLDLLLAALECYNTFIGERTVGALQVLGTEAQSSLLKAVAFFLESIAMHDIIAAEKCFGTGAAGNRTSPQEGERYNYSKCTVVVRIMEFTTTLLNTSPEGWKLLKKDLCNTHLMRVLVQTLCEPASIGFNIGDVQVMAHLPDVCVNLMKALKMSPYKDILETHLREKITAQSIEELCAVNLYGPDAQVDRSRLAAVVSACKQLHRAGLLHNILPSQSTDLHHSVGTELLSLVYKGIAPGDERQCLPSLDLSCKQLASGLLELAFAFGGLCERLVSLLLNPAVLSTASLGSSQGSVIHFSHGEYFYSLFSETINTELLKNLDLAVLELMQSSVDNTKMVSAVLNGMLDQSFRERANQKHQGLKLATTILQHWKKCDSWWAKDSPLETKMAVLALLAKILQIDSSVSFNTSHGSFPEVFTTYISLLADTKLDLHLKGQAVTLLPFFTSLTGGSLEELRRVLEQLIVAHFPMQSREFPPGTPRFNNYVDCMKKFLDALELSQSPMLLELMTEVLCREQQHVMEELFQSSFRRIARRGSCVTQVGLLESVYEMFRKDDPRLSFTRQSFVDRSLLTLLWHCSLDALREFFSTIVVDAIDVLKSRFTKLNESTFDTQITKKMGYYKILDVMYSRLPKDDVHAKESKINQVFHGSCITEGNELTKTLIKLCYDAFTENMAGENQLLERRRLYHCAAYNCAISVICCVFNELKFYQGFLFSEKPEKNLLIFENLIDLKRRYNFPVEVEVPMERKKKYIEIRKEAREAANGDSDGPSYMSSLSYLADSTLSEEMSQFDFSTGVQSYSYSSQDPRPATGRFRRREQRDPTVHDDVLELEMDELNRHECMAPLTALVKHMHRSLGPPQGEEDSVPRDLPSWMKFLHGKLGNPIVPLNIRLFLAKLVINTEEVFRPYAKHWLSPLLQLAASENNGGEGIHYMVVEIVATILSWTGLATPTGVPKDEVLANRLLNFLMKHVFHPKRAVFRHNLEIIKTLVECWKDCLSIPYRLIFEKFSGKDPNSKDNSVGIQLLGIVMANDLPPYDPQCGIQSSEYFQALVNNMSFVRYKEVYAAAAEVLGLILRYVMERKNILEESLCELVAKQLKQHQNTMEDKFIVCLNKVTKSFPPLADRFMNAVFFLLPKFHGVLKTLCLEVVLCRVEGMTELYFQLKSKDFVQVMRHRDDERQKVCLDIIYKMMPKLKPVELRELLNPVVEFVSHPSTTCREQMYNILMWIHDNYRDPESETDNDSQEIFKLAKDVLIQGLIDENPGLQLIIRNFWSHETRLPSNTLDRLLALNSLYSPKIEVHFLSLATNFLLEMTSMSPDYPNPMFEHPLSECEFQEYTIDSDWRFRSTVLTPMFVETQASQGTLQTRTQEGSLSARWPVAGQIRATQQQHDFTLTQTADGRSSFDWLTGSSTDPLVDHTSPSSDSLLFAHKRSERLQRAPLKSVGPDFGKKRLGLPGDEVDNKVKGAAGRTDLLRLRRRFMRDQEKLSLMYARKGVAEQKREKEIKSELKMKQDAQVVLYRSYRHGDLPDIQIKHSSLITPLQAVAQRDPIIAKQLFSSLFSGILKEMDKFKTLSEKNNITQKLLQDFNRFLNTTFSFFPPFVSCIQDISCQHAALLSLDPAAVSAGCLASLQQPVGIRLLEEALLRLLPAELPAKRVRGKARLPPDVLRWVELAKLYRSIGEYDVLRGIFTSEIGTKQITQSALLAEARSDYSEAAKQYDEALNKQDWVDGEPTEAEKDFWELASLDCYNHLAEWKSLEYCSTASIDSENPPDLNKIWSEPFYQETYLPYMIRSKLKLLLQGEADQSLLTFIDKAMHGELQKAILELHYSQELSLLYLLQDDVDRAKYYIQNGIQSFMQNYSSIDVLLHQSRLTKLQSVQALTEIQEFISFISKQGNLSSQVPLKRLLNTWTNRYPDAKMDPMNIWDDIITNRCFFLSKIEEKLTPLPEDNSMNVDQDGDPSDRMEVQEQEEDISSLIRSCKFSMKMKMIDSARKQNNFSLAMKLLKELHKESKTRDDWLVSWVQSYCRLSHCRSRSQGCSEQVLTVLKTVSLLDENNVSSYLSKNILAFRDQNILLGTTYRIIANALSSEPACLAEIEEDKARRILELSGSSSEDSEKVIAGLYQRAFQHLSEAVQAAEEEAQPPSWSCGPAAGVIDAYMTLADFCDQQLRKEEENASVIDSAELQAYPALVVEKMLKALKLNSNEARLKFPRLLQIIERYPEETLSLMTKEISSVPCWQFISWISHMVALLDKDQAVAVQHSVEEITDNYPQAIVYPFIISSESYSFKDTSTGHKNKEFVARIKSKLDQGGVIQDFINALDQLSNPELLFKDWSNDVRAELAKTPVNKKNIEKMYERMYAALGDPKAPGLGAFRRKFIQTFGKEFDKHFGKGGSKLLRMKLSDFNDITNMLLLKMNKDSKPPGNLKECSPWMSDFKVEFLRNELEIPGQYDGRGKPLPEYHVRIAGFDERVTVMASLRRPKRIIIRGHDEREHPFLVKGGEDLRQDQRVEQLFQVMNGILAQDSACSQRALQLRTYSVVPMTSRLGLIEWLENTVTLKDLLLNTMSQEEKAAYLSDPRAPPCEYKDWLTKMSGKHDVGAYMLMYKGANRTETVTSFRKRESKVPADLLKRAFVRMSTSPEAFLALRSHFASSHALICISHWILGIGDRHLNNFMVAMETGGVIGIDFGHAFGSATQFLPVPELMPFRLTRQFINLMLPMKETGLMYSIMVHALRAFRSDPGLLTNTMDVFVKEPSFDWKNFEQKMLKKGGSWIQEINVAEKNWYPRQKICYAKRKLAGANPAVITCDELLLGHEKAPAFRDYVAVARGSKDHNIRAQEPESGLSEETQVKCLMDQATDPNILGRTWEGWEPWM

Target: DNA-PK (Homo sapiens (Human), UniProt P78527)
Test: DNAPK activity assay (ADP Hunter Plus)
Format: biochemical
Conditions: 75 μM ATP
Procedure: The kinase activity was measured by using the commercial ADP Hunter™ Plus assay available from DiscoveRx (#90-0083), which is a homogeneous assay to measure the accumulation of ADP, a universal product of kinase activity. The enzyme, DNA-PK was purchased from Promega (#V5811). The assay was done following the manufacturer recommendations with slight modifications: Mainly the kinase buffer was replace by 15 mM HEPES, pH 7.5, 10 mM MgCl2, 20 mM NaCl, 1 mM EGTA, 0.1 mg/mL BGG, 0.02% Tween 20. The DNA-PK was assayed in a titration experiment to determine the optimal protein concentration for the inhibition assay. To calculate the […] of the Compounds, serial 1:3 dilutions of the compounds were added to the enzyme at a fixed concentration (2 U/μL). The enzyme was preincubated with the inhibitor and 200 μM DNA substrate and then ATP was added to a final 75 μM concentration. Reaction was carried out for 1 hour at 37° C. Reagent A and B were sequentially added to the wells and plates were incubated for 30 min at RT. Fluorescence counts were read in a EnVision instrument (Perkin Elmer) with the recommended settings (550 and 590 nm as excitation and emission wavelengths, respectively).

CC(C)(c1nc(-c2cccc3[nH]ccc23)nc2c1OCC[C@@H]1COCCN21)S(C)(=O)=O [Example 25]
IC50: 10 µM
